Target: MAO-B (Homo sapiens, UniProt P27338)
Assay: MAO-B inhibition assay (benzylamine substrate)
Assay type: biochemical
Details: selectivity for MAO-B over MAO-A

Amino acid sequences for entries named in this document (tags omitted).
UniProt P27338, whole entry: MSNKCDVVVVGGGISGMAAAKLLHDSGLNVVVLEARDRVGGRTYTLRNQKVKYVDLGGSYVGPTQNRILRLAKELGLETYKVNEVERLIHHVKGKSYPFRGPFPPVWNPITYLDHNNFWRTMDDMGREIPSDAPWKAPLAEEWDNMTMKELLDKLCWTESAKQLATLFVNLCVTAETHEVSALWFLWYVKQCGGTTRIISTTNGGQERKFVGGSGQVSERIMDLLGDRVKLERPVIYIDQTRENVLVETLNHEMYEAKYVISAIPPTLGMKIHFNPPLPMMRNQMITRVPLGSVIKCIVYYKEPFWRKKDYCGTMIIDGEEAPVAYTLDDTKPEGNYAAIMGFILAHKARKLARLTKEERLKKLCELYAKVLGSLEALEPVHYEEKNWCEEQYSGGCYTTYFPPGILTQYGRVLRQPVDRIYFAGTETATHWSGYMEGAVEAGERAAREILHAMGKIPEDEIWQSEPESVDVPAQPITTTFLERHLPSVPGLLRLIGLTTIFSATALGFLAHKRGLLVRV

For O=C(/C=C/c1ccccc1)c1ccc(N2CCOCC2)cc1 [MO1], the “SI = IC50 of MAO-A/IC50 of MAO-B” value was over 1333.3.
